Reference: ChEMBL document CHEMBL4422615, “Novel non-xanthine antagonist of the A2B adenosine receptor: From HTS hit to lead structure” (Eur J Med Chem, 2019)

Tests used:
Assay type in all cases: cell-based
Homo sapiens [1] = species: Homo sapiens; assay: Selectivity index, ratio of IC50 for human A1 adenosine receptor expressed in CHO cell membranes to IC50 for human A2B adenosine receptor expressed in HEK293 cell membranes
Homo sapiens [2] = species: Homo sapiens; assay: Selectivity index, ratio of IC50 for human A2A adenosine receptor expressed in HEK293 cell membranes to IC50 for human A2B adenosine receptor expressed in HEK293 cell membranes
Homo sapiens [3] = species: Homo sapiens; assay: Selectivity index, ratio of IC50 for human A3 adenosine receptor expressed in HEK293 cell membranes to IC50 for human A2B adenosine receptor expressed in HEK293 cell membranes

## CCn1c(=O)c2c(C)c(C(=O)N3CCC(O)CC3)sc2n(CCC(F)(F)F)c1=O
Homo sapiens [1]
  Ratio IC50: 20 to 24
Homo sapiens [2]
  Ratio IC50: 13 to 16
Homo sapiens [3]
  Ratio IC50: 10 to 100
